# Assay results: patent publication US9156811B2 (priority 2008, dated 2015)
# Test system: Trypanosome (T. brucei brucei)
# Experiment: In-vitro antitrypanosomal efficacy assay (cell growth, resazurin)
row,SMILES,ED50 (μM) T. brucei [µM]
1,"Cc1c(N[S+](=O)([O-])c2ccc(-c3ccc4c(c3)CN(C)CCC4)cc2)c(CC(C)C)nn1C [DDD100868, N-(3-isobutyl-1,5-dimethyl-1H-pyrazol-4-yl)-4-(2-methyl-2,3,4,5-tetrahydro-1H-benzo[c]azepin-8-yl)benzenesulfonamide Hydrochloride]",0.0009
2,"Cc1nn(C)c(C)c1N[S+](=O)([O-])c1ccc(-c2ccnc(N3CCNCC3)c2)cc1Cl [DDD86206, 2-Chloro-4-(2-piperazin-1-yl-pyridin-4-yl)-N-(1,3,5-trimethyl-1H-pyrazol-4-yl)-benzenesulfonamide]",0.001
3,"Cc1nn(C)c(C)c1N[S+](=O)([O-])c1ccc(-c2cccc(CCN3CCN(C)CC3)c2)cc1 [DDD87753, 3′-[2-(4-Methyl-piperazin-1-yl)-ethyl]biphenyl-4-sulfonic acid (1,3,5-trimethyl-1H-pyrazol-4-yl)-amide]",>1
4,"Cc1nn(C)c(C)c1N[S+](=O)([O-])c1c(Cl)cc(-c2cccc(N3CCNCC3)c2)cc1Cl [DDD86479, 3,5-Dichloro-3′-piperazin-1-yl-biphenyl-4-sulfonic acid (1,3,5-trimethyl-1H-pyrazol-4-yl)-amide]",0.005
5,"Cc1nn(C)c(C)c1N[S+](=O)([O-])c1ccc(-c2ccnc(N3CCNCC3)c2)cc1F [DDD88188, 2-Fluoro-4-(2-piperazin-1-yl-pyridin-4-yl)-N-(1,3,5-trimethyl-1H-pyrazol-4-yl)-benzenesulfonamide]",0.005
6,"Cc1c(N[S+](=O)([O-])c2ccc(-c3ccc4c(c3)CNCCC4)cc2)c(CC(C)C)nn1C [DDD100798, N-(3-isobutyl-1,5-dimethyl-1H-pyrazol-4-yl)-4-(2,3,4,5-tetrahydro-1H-benzo[c]azepin-8-yl)benzenesulfonamide Hydrochloride]",0.006
7,"Cc1cc(-c2ccnc(N3CCNCC3)c2)ccc1[S+](=O)([O-])Nc1c(C)nn(C)c1C [DDD88186, 2-Methyl-4-(2-piperazin-1-yl-pyridin-4-yl)-N-(1,3,5-trimethyl-1H-pyrazol-4-yl)-benzenesulfonamide]",0.003
8,"Cc1nn(C)c(C)c1N[S+](=O)([O-])c1ccc(-c2ccnc(N3CCCNCC3)c2)cc1 [DDD87767, 4-(2-[1,4]-Diazepan-1-yl-pyridin-4-yl)-N-(1,3,5-trimethyl-1H-pyrazol-4-yl)-benzenesulfonamide]",0.003
9,"Cc1nn(C)c(C)c1N[S+](=O)([O-])c1cc(F)c(-c2ccnc(N3CCNCC3)c2)cc1F [DDD87997, 2,5-Difluoro-4-(2-piperazin-1-yl-pyridin-4-yl)-N-(1,3,5-trimethyl-1H-pyrazol-4-yl)-benzenesulfonamide]",0.003
10,"CCN(CC)Cc1cccc(-c2cc(Cl)c([S+](=O)([O-])Nc3c(C)nn(C)c3C)c(Cl)c2)c1 [DDD88007, 3,5-Dichloro-3′-diethylaminomethyl-biphenyl-4-sulfonic acid (1,3,5-trimethyl-1H-pyrazol-4-yl)-amide]",0.08
11,"Cc1c(N[S+](=O)([O-])c2c(Cl)cc(-c3ccnc(N4CCNCC4)c3)cc2Cl)c(CC(C)C)nn1C [DDD86481, 2,6-Dichloro-N-(3-isobutyl-1,5-dimethyl-1H-pyrazol-4-yl)-4-(2-piperazin-1-yl-pyridin-4-yl)-benzenesulfonamide]",0.002
12,"Cc1ncccc1N[S+](=O)([O-])c1c(Cl)cc(-c2ccnc(N3CCNCC3)c2)cc1Cl [DDD86480, 2,6-Dichloro-N-(2-methyl-pyridin-3-yl)-4-(2-piperazin-1-yl-pyridin-4-yl)-benzenesulfonamide]",0.33

# Structures can show the parent of a compound that is named as a salt.
